Source: PubChem BioAssay (Broad Institute)
DENV2 CPE = DENV2-induced cell death inhibition; DENV2-infected cells, cytopathic effect rescue, plate reader; CPE inhibition, % at 9.99 µM; 350,000 compounds, 1.7% hits; AID 651640; in the data active = CPE inhibition above about 20%, passing the limit was not always enough; inconclusive = no clear call, values can overlap the other calls; tested in BHK-21 cells;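 note: 0% = median of neutral control wells and 100% = median of positive control wells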
Cneo AK release = Cryptococcus neoformans lysis via adenylate kinase release. lysis activity, % at 15 µM. AID 651654. C. neoformans lysis, adenylate kinase release luminescence, 4 h; normalised: neutral wells 0, clomiphene wells 100. 360,000 compounds, 0.2% hits;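 active = mean lysis activity across replicates of at least 80%, whatever share of replicates individually reach that level; inactive = mean lysis activity below 80%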
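Schedule: static 4 h at 37 °C with compound, 1 h detection; system: C. neoformans cells; benchmarks: Clomiphene as positive control; buffer or medium: fresh YPD medium; measure: luminescence rise reflecting yeast cell lysis; measured by: luminescent adenylate kinase detection reagent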
E-selectin induc = E-selectin induction on HUVECs; activation, % at 7.58 µM; AID 686992; HUVEC E-selectin immunofluorescence imaging; normalized: neutral wells 0, TNF-alpha wells 100; 260,000 compounds, 0.37% hits;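 active = mean E-selectin-positive cell signal at least 10% of the positive control, reached in at least 60% of replicates, without over 20% cell loss; inconclusive = no rule given, readout overlaps actives, possibly toxicity-flagged; inactive = the rest, including those meeting only one limit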
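Read-out: % PE-positive cells | Test system: HUVEC | Doses: One compound dose added by pin transfer | Buffer or medium: EGM-2 over gelatin coat | Signal: Immunofluorescence imaging | Benchmarks: TNF-alpha, DMSO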
UUG fidelity = modulators of start codon recognition fidelity in yeast; AID 602363; hit rate 0.13% among 350,000; activity score, % at 18.7 µM; S. cerevisiae UUG-firefly luciferase reporter, luminescence/redox ratio;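 active = replicate mean at a twofold rise or more, about +100% in these data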;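 note: firefly luciferase made from a UUG start codon reports start codon fidelity; reporter light over untreated wells divided by growth signal over untreated wells; some hits fall short of that in this replicate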
Active calls of the source: *; ? = inconclusive; / = no result given. An excerpt weighted towards active compounds, which were near 1.8% of everything screened.

SMILES	DENV2 CPE	Cneo AK release	E-selectin induc	UUG fidelity
COc1ccc(C#Cc2cnc3c(c2)C(=O)N([C@H](C)CO)C[C@@H](C)[C@@H](CN(C)C(C)=O)O3)cc1	0.0	-0.5	-0.5	10.2
C[C@H](CO)N1C[C@H](C)[C@H](CN(C)C(=O)NC2CCCC2)Oc2ncc(-c3ccccc3F)cc2C1=O	?	1.0	-2.7	12.3
COc1ccc(S(=O)(=O)N2CC[C@H]3[C@H](CO)Nc4ccc(C#Cc5cccnc5)cc4[C@H]32)cc1	-9.7	/	-0.4	/
COc1ccc(S(=O)(=O)N2CC[C@@H]3[C@@H](CO)Nc4ccc(-c5ccc(C#N)cc5)cc4[C@@H]32)cc1	7.2	4.1	0.1	21.1
O=S(=O)(c1cccc(F)c1)N1CC[C@@H]2[C@H]1c1cc(-c3cccc(F)c3)ccc1N[C@@H]2CO	51.6*	0.0	-0.9	9.6
Cc1ccc(S(=O)(=O)N2CC[C@@H]3[C@H](CO)Nc4ccc(-c5ccccc5F)cc4[C@@H]32)cc1	147.2*	89.8*	-0.6	7.3
O=S(=O)(c1cccc(F)c1)N1CC[C@H]2[C@H](CO)Nc3ccc(-c4cccc(F)c4)cc3[C@H]21	18.7	-22.9	-0.7	13.6
O=S(=O)(c1ccc(F)cc1)N1CC[C@@H]2[C@@H](CO)Nc3ccc(-c4ccc(F)cc4)cc3[C@@H]21	51.1*	2.0	-0.4	-3.8
O=S(=O)(c1ccc(F)cc1)N1CC[C@H]2[C@H](CO)Nc3ccc(-c4ccc(F)cc4)cc3[C@H]21	14.1	-3.9	-0.2	15.7
Cc1ccc(S(=O)(=O)N2CC[C@H]3[C@H](CO)Nc4ccc(-c5ccccc5F)cc4[C@H]32)cc1	18.2	-0.5	-0.7	7.7
Cc1ccc(S(=O)(=O)N2CC[C@@H]3[C@H]2c2cc(-c4ccc(C#N)cc4)ccc2N[C@@H]3CO)cc1	24.3*	-22.4	-0.8	-12.7
CCC(=O)Nc1ccc2c(c1)C(=O)N(C)[C@@H]1CC[C@@H](CC(=O)NC3Cc4ccccc4C3)O[C@H]1CO2	8.4	-4.2	0.2	14.0
C[C@H]1CN([C@@H](C)CO)S(=O)(=O)c2ccc(C#CCN(C)C)cc2O[C@@H]1CN(C)Cc1cccnc1	-5.8	3.3	0.1	-11.2
CN(C)C(=O)C[C@@H]1C[C@@H]2c3cc(NC(=O)C4CCC4)ccc3O[C@@H]2[C@H](CO)O1	0.0	1.4	-0.2	-8.2
O=C(C[C@H]1C=C[C@@H](NC(=O)C2CCOCC2)[C@H](CO)O1)Nc1ccccc1	12.4	/	-0.4	/
Cc1noc(C)c1NC(=O)Nc1ccc2c(c1)CC(=O)N([C@@H](C)CO)C[C@@H](C)[C@H](CN(C)Cc1ccc(C(=O)O)cc1)O2	?	-2.2	15.8	-3.2
OC[C@H]1Nc2ccc(-c3ccc(F)cc3)cc2[C@H]2[C@@H]1CCN2Cc1ccc(F)cc1	-26.6	6.2	/	-14.9
O=S(=O)(c1ccccc1F)N1CC[C@@H]2[C@@H](CO)Nc3ccc(-c4cccc(F)c4)cc3[C@@H]21	-18.7	-11.7	-0.5	-12.3
C/C=C/c1ccc2c(c1)[C@H]1[C@H](CCN1Cc1ccc(F)cc1)[C@H](CO)N2	37.9*	/	-0.2	/
O=S(=O)(c1ccccc1F)N1CC[C@@H]2[C@H](CO)Nc3ccc(-c4ccccc4)cc3[C@@H]21	23.8*	28.4	1.1	-8.9
CO[C@H]1CN(C)C(=O)c2ccc(NC(=O)Nc3ccccc3F)cc2OC[C@@H](C)NC[C@H]1C	-4.8	-3.6	-0.3	-3.0
Cc1noc(C)c1NC(=O)Nc1cccc2c1O[C@H](CN(C)C(=O)Nc1ccccc1)[C@H](C)CN([C@@H](C)CO)C2=O	-6.6	-3.8	-4.2	-6.0
COCCN(C[C@@H]1[C@@H](c2ccccc2)[C@H](CO)N1C(C)=O)C(=O)c1ccncc1	23.6*	49.7	-0.1	-1.9
CCN(C[C@H]1N[C@H](CO)[C@@H]1c1ccccc1)C(=O)c1ccncc1	/	45.5	0.1	-6.3
COCCN(C[C@@H]1[C@@H](c2ccccc2)[C@@H](CO)N1C(C)=O)C(=O)c1ccncc1	-3.8	-0.2	0.1	-8.1
CCN(C[C@@H]1N[C@H](CO)[C@H]1c1ccccc1)C(=O)c1ccncc1	25.7*	-4.3	0.0	-5.5
COCCN(C[C@H]1[C@H](c2ccccc2)[C@@H](CO)N1C(C)=O)C(=O)c1ccncc1	26.3*	-0.9	-0.1	-4.0
CCC(=O)N1[C@H](CO)[C@H](c2ccccc2)[C@H]1CN(CC)C(=O)c1cccc(F)c1	-7.7	95.8*	0.2	13.4
COc1ccc(S(=O)(=O)Nc2ccc3c(c2)C(=O)N([C@H](C)CO)C[C@@H](C)[C@H](CN(C)CC2CC2)O3)cc1	8.9	0.5	-0.1	22.6

Sorted by the number under UUG fidelity (smallest number first): some entries from above.
SMILES | UUG fidelity
C[C@H]1CN([C@@H](C)CO)S(=O)(=O)c2ccc(C#CCN(C)C)cc2O[C@@H]1CN(C)Cc1cccnc1 | -11.2
COc1ccc(C#Cc2cnc3c(c2)C(=O)N([C@H](C)CO)C[C@@H](C)[C@@H](CN(C)C(C)=O)O3)cc1 | 10.2
O=S(=O)(c1cccc(F)c1)N1CC[C@H]2[C@H](CO)Nc3ccc(-c4cccc(F)c4)cc3[C@H]21 | 13.6

Among those listed so far, these have a cyano group.
SMILES	DENV2 CPE	Cneo AK release	E-selectin induc	UUG fidelity
COc1ccc(S(=O)(=O)N2CC[C@@H]3[C@@H](CO)Nc4ccc(-c5ccc(C#N)cc5)cc4[C@@H]32)cc1	7.2	4.1	0.1	21.1
Cc1ccc(S(=O)(=O)N2CC[C@@H]3[C@H]2c2cc(-c4ccc(C#N)cc4)ccc2N[C@@H]3CO)cc1	24.3*	-22.4	-0.8	-12.7
